The results in this text go back to ChEMBL document CHEMBL2396607 (Bioorg Med Chem Lett, 2013).

Protein sequences, listed by entry. Tags and fused reporters are not part of them.
UniProt P42336, whole entry: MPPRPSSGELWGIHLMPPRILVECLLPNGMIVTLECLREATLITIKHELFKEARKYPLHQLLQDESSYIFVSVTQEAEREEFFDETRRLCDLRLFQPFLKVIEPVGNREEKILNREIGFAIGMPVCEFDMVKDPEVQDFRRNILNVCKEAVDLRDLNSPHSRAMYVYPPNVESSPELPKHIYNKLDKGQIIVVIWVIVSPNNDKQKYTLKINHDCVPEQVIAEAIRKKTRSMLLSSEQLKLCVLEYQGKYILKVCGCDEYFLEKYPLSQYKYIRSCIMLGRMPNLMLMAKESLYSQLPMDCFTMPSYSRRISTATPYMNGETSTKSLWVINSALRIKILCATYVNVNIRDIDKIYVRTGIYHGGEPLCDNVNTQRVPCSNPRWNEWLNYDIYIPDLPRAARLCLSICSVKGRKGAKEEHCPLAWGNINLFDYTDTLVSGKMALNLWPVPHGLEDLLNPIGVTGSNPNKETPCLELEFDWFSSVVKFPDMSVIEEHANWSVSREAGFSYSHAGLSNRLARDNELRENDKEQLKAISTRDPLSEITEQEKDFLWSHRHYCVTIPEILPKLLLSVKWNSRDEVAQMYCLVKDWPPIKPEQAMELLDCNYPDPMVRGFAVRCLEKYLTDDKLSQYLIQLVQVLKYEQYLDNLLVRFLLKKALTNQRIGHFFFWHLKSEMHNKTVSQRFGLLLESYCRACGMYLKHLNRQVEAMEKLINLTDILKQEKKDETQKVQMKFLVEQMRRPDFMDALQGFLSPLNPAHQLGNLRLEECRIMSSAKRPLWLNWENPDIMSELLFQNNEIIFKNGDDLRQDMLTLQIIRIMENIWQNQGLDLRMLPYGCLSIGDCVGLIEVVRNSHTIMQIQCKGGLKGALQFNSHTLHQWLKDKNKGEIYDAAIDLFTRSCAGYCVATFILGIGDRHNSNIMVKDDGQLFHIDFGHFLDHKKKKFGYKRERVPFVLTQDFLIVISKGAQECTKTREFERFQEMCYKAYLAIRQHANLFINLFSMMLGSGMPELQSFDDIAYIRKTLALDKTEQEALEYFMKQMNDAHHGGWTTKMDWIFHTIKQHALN

The target of experiment [1] is T1, Phosphatidylinositol 4,5-bisphosphate 3-kinase catalytic subunit alpha isoform (Homo sapiens, UniProt P42336). Put plainly: Inhibition of N-terminal myristoylated P110alpha (unknown origin)-mediated AKT phosphorylation at Ser473 expressed in rat Rat1 cells by ELISA. In kind it is cell-based.
Experiment [2] concerns the target T1, Phosphatidylinositol 4,5-bisphosphate 3-kinase catalytic subunit alpha isoform. Put plainly: Inhibition of P110alpha (unknown origin) using L-a-phosphatidylinositol as substrate by luminescence assay.

Consider `Cc1nc(NC(=O)N2CCC[C@H]2C(N)=O)sc1-c1ccnc(C(C)(C)C)c1`, for which the midpoint of inhibition in experiment [1], the IC50, lay at 61 nM.

With `Cc1nc(NC(=O)N2CCC[C@@H]2C(N)=O)sc1-c1ccnc(C(C)(C)C)c1`, in experiment [2], the concentration for half-maximal inhibition (IC50) was greater than 9100 nM.

Turning to `Cc1nc(NC(=O)N2CCC[C@H]2C(N)=O)sc1-c1ccnc(C2(C)CC2)n1`, it took 150 nM to reach half-maximal inhibition in experiment [1] (IC50).

By IC50 is commonly meant the concentration that inhibits the measured activity by half.
